Data published in ChEMBL document CHEMBL1126828, “Structure-activity relationships of trans-3,4-dimethyl-4-(3-hydroxyphenyl)piperidine antagonists for mu- and kappa-opioid receptors” (J Med Chem, 1993).

The chains behind the UniProt entries cited, without tags or fusion partners. Where a name states a change or a piece, a line headed by the entry shows the natural chain unless it says otherwise.
UniProt P41144: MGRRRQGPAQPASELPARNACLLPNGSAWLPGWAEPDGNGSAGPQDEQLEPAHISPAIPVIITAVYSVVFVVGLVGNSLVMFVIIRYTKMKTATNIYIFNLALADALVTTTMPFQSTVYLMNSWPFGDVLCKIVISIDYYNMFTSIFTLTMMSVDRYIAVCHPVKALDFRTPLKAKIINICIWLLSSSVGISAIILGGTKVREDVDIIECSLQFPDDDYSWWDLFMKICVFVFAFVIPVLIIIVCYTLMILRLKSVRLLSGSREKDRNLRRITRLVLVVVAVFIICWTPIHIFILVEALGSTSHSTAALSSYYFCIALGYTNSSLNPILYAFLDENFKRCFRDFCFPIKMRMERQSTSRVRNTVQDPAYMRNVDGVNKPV

Molecular target: Kappa-type opioid receptor (Cavia porcellus, UniProt P41144)
Assay: Binding affinity towards kappa-opioid receptor by displacement of [3H]-EKC at from guinea pig cortical tissue

Structure (SMILES): CCCCCCN1CC[C@@](C)(c2cccc(O)c2)[C@@H](C)C1
- Ki: 9.6 nM
